Source: patent US20050165102A1, “Compositions and dosage forms for enhanced absorption” (priority 2003, published 2005)

Columns and labels:
[1] = In vivo absorption, oral gavage rat model (metformin); conditions: rats, end of oral gavage study
[2] = rat, in vivo, po

Row | SMILES | macroscopic evaluation of the G.I. tract for signs of irritation [1] | macroscopic evaluation of the G.I. tract for signs of irritation [2]
1 | CN(C)C(=N)N=C(N)N [Metformin HCl, metformin hydrochloride, reference compound] | No irritation | –
2 | CCCCCCCCCCCC(=O)O.CN(C)C(=N)N=C(N)N [Metformin laurate] | – | No irritation

Counter-ions that a name gives are not always drawn. Like-named read-outs stand apart in the source and are kept apart here.
